Sequences of proteins named here, by UniProt entry; tags and fusion partners are left off.
UniProt P21396, whole entry: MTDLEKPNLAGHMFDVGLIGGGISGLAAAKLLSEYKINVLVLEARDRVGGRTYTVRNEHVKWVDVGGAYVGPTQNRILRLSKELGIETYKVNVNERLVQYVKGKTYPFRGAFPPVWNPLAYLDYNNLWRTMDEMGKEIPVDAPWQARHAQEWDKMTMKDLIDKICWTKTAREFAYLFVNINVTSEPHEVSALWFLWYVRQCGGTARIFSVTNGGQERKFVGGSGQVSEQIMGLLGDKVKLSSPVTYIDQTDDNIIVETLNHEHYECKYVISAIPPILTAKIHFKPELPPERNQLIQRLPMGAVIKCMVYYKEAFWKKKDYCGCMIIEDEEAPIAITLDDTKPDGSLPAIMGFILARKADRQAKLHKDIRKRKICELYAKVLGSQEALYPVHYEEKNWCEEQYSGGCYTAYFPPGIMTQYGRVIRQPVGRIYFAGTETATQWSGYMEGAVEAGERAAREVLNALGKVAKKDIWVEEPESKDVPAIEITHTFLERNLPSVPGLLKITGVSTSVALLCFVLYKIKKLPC
UniProt P19643, whole entry: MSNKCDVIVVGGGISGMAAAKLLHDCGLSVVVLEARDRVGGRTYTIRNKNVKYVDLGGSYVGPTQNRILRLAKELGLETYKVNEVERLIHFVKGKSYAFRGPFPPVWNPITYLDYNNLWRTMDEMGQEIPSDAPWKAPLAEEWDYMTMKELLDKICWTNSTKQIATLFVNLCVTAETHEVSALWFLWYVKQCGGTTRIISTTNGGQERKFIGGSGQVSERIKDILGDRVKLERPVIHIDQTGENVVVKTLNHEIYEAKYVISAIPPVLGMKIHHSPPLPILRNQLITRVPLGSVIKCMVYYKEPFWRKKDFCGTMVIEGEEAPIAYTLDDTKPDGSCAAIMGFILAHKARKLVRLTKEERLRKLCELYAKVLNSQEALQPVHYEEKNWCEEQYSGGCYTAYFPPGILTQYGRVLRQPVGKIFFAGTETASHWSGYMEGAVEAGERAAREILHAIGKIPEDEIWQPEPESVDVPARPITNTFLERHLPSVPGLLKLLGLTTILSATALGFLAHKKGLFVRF

In patent US9034303B2, “Neuroprotective and neuro-restorative iron chelators and monoamine oxidase inhibitors and uses thereof” (priority 2010, dated 2015):

Tests used:
rat brain MAO-A = rat brain MAO-A (Rattus norvegicus (Rat), UniProt P21396); assay: In vitro inhibition of rat brain MAO-A (14C-5-HT substrate); assay type: biochemical; conditions: for Inhibition of brain MAO-A (%): rat brain extracts
Experimental: (§1) Rats are decapitated and the brains quickly taken into a weighted ice-cold sucrose buffer (0.32 M) and their weights determined. All subsequent procedures are performed at 0° C. The brains are homogenized in 0.32 M sucrose (one part tissue to 20 parts sucrose) in a Teflon glass homogenizer followed by the addition of sucrose buffer to a final concentration of 10% homogenate. The homogenates are centrifuged at 600 g for 15 min. The supernatant fractions are taken out and centrifuged at 4500 g for 30 min, the pellet diluted in 0.32 M sucrose buffer and kept frozen for later assaying of MAO. Protein concentration is determined with Bradford reagent at λ=595 nm, using BSA as a standard.
(§2) MAO-A and MAO-B activities are determined in rat brain homogenate in vitro following incubation with varying concentrations of the test compounds.
The activity of MAO-A and MAO-B was determined by the adapted method of Tipton & Youdim (Tipton K F, O'Sullivan J, Youdim M B, 1983, Encyclopedia of Neuroscience, 2004, G. Adelman and B. H. Smith, Elsevier). The test compound was added to a suitable dilution of the enzyme preparation (70 μg protein for MAO-B and 150 μg MAO-A assay) in 0.1 M phosphate buffer (pH 7.4). The mixture was incubated together with […], a specific inhibitor of MAO-B (for determination of MAO-A) or 0.05 M clorgylin, a specific inhibitor of MAO-A (for determination of MAO-B). Incubation was carried for 0.5 or 1 h at 37° C. before addition of ^14C-5-hydroxytryptamine binoxalate (5-HT) (100 or 400 μM) for determination of MAO-A, or ^14C-phenylethylamine (^14C-PEA) 100 or 400 μM for determination of MAO-B, and incubation continued for 30 min or 20 min, respectively. The reaction was stopped with 2 M ice-cold citric acid, and the metabolites were extracted and determined by liquid-scintillation counting in cpm units. […]
MAO-A and MAO-B activity was measured using radioactive substrates. The substrate for MAO-A was 5 HT and for MAO-B was PEA. […] The metabolites were extracted to toluene and read in a β-counter. […]

rat brain MAO-B = rat brain MAO-B (Rattus norvegicus (Rat), UniProt P19643); assay: In vitro inhibition of rat brain MAO-B (14C-PEA substrate); assay type: biochemical; conditions: for Inhibition of brain MAO-B (%): rat brain extracts
Experimental: as §1, with “MAO.” for “MAO. Protein concentration is determined with Bradford reagent at λ=595 nm, using BSA as a standard.”
as §2
The in vitro inhibitory activity of the compounds is tested against rat brain MAO-B. The test compounds are added to buffer containing 10^−7 M clorgylin and are incubated with the tissue homogenate for 30 or 60 min at 37° C. before addition of ^14C-PEA.
The test compound was added to a suitable dilution of the enzyme preparation (70 μg protein for MAO-B and 150 μg MAO-A assay) in 0.1 M phosphate buffer (pH 7.4). The mixture was incubated together with […], a specific inhibitor of MAO-B (for determination of MAO-A) or 0.05 M clorgylin, a specific inhibitor of MAO-A (for determination of MAO-B). […] The reaction was stopped with 2 M ice-cold citric acid, and the metabolites were extracted and determined by liquid-scintillation counting in cpm units.
The reaction was stopped with 2 M ice-cold citric acid, and the metabolites were extracted with ethyl acetate and levels of radioactivity were determined by liquid-scintillation counting in CPM units. All assays were performed at least in duplicate and outcome was expressed as a mean±SEM. Data were analyzed by a Student's t test. […]
MAO-A and MAO-B activity was measured using radioactive substrates. […] The metabolites were extracted to toluene and read in a β-counter. […]

## C#CCN[C@@H]1CCc2ccccc21 [Rasagiline, reference compound]
Rat brain MAO-A; concentration 0.001 mM
  Inhibition of brain MAO-A (%): 47.4%
Rat brain MAO-A; concentration 1.0 mM
  Inhibition of brain MAO-A (%): 99.8%
Rat brain MAO-A; rat brain
  Inhibition of rat brain MAO-A in vitro (in words): MAO-A more poorly
Rat brain MAO-B; concentration 0.001 mM
  Inhibition of brain MAO-B (%): 99.5%
Rat brain MAO-B; concentration 1.0 mM
  Inhibition of brain MAO-B (%): 99.7%
Rat brain MAO-B; rat brain
  Inhibition of rat brain MAO-B in vitro (in words): inhibits MAO-B very strongly
